{
  "source": "paper PMC5651683",
  "about": "(The Biochemical journal, 2017)",
  "target": "His6-Munc18a (rat, UniProt P61765 1-594)",
  "assay": "pull-down",
  "data": [
    {"binder": "syntaxin4, full-length, liposome-anchored (natural protein) MRDRTHELRQGDNISDDEDEVRVALVVHSGAARLSSPDDEFFQKVQTIRQTMAKLESKVRELEKQQVTILATPLPEESMKQGLQNLREEIKQLGREVRAQLKAIEPQKEEADENYNSVNTRMKKTQHGVLSQQFVELINKCNSMQSEYREKNVERIRRQLKITNAGMVSDEELEQMLDSGQSEVFVSNILKDTQVTRQALNEISARHSEIQQLERSIRELHEIFTFLATEVEMQGEMINRIEKNILSSADYVERGQEHVKIALENQKKARKKKVMIAICVSVTVLILAVIIGITITVG", "values": [
      {"measurement": "binding result", "value": "binds"}
    ]}
  ]
}
